# scFv variants of Ab-14 (heavy chain) against a SARS-CoV-2 spike peptide

The measurements come from Li et al. 2023 (doi:10.1038/s41467-023-39022-2) through the FLAb antibody collection.

Target: peptide PDVDLGDISGINAS, taken from heptad repeat 2 (HR2) of SARS-CoV-2 spike.

Parent: Ab-14, a human scFv built as VH, a 15-residue (Gly4Ser)3 linker, VL. Only the CDRs of the heavy chain vary.
VH: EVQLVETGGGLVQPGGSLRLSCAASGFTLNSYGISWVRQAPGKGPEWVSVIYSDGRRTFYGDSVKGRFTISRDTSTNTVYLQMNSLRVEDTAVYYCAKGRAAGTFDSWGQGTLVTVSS
VL: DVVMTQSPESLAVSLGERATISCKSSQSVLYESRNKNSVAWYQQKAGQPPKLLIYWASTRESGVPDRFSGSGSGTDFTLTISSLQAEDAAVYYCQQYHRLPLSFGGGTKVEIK

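These sequences belong to a second round, designed from the earlier measurements on random variants of the parent. Group labels follow the data file (Ctrl: baseline library sampled from a position-specific scoring matrix, with some repeated check sequences; Rand: our label for a block that the file lists under HC and that is probably the random mutants of the ten best first-round binders; En: ensemble of fine-tuned language models; GP: Gaussian process model; GPLM: also part of the Gaussian process libraries; HC: hill climbing; Gen: genetic algorithm; Gibbs: Gibbs sampling; a sequence that several methods proposed may carry one label only). In AlphaSeq, yeast of one mating type display the scFv and yeast of the other type display the target. Mating (16 h, 30 °C) was followed by selection of diploids and sequencing of their barcodes. Read counts were normalised to the haploid input and turned into Kd by a linear fit to BCL2-family pairs of known affinity, for each replicate. Each pool was mated in six replicate cultures.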

Variants are written as CDR1, CDR2 and CDR3 of the heavy chain (limits as in the source). Parent: GFTLNSYGIS, VIYSDGRRTFYGDSVK, GRAAGTFDS. The Kd shown is the geometric mean over detected replicates; a lower Kd is a better binder. "no signal" marks a missing value. The strain was present, yet no cells mated with the target were sequenced in any replicate, which points to weak or no binding. In the paper, a design with two or fewer of six values counts as a poor binder.

{"CDR-H1": "GFDLNSYGIS", "CDR-H2": "VIYSDGRRTFYADTVK", "CDR-H3": "GRTAGTFDS", "group": "GP_Gen", "Kd (apparent)": "610 pM", "replicates with signal": "6 of 6", "empty controls": "0 of 18"}
{"CDR-H1": "GFDLNSYGIS", "CDR-H2": "VIYSDGRRTFYGDSVK", "CDR-H3": "GREAGTFDK", "group": "GPLM_Gibbs", "Kd (apparent)": "1.4 nM", "replicates with signal": "6 of 6", "empty controls": "0 of 18"}
{"CDR-H1": "GFDLNEYGIS", "CDR-H2": "VIYADGMRTFYADSVK", "CDR-H3": "GESAGTFDQ", "group": "En_HC", "Kd (apparent)": "640 pM", "replicates with signal": "6 of 6", "empty controls": "0 of 18"}
{"CDR-H1": "GFDLNSYGIS", "CDR-H2": "VIYSDGRRTFYGDQVK", "CDR-H3": "GRIAGTFDM", "group": "GP_Gibbs", "Kd (apparent)": "4.4 nM", "replicates with signal": "6 of 6", "empty controls": "0 of 18"}
{"CDR-H1": "GFDLNEYGIS", "CDR-H2": "VIYADGIRTFYADSVK", "CDR-H3": "GNAAGTFDK", "group": "En_HC", "Kd (apparent)": "560 pM", "replicates with signal": "6 of 6", "empty controls": "0 of 18"}
{"CDR-H1": "GFDLNEYGIS", "CDR-H2": "VIYADGRRTAYTDSVK", "CDR-H3": "GQVAGTFDS", "group": "En_HC", "Kd (apparent)": "300 pM", "replicates with signal": "6 of 6", "empty controls": "0 of 18"}
{"CDR-H1": "GFDLNEYGIS", "CDR-H2": "VIYADGKRTSYADSVK", "CDR-H3": "GEAAGTFDV", "group": "En_HC", "Kd (apparent)": "1.1 nM", "replicates with signal": "6 of 6", "empty controls": "2 of 18"}
{"CDR-H1": "GFSLNEYGIS", "CDR-H2": "VIYSDGRRTFYKDSVK", "CDR-H3": "GRAAGTFDS", "group": "GPLM_Gen", "Kd (apparent)": "620 pM", "replicates with signal": "6 of 6", "empty controls": "1 of 18"}
{"CDR-H1": "GFDLNEYGIS", "CDR-H2": "VIYSDGRRTMYGDSVK", "CDR-H3": "GRTAGTFDS", "group": "GP_Gen", "Kd (apparent)": "270 pM", "replicates with signal": "6 of 6", "empty controls": "0 of 18"}
{"CDR-H1": "GFELNSYGIS", "CDR-H2": "VIYSDGRRTFYGDSVK", "CDR-H3": "GMTAGTFDS", "group": "GP_Gen", "Kd (apparent)": "2.6 nM", "replicates with signal": "6 of 6", "empty controls": "0 of 18"}
{"CDR-H1": "GFDLNEYGIS", "CDR-H2": "VIYADGQRTAYADNVK", "CDR-H3": "GEVAGTFDL", "group": "En_Gen", "Kd (apparent)": "550 pM", "replicates with signal": "6 of 6", "empty controls": "0 of 18"}
{"CDR-H1": "GFDLNEYGIS", "CDR-H2": "VIYADGKRTFYADSVK", "CDR-H3": "GEVAGTFDM", "group": "En_Gen", "Kd (apparent)": "380 pM", "replicates with signal": "6 of 6", "empty controls": "0 of 18"}
{"CDR-H1": "GFTLNSYGIS", "CDR-H2": "VIYSDGRRTAYHDSVK", "CDR-H3": "GRLAGTFDS", "group": "Ctrl", "Kd (apparent)": "8.2 nM", "replicates with signal": "6 of 6", "empty controls": "1 of 18"}
{"CDR-H1": "GFDLNSYGIS", "CDR-H2": "VIYSDGKRTFYGDSVK", "CDR-H3": "GRQAGTFDS", "group": "GP_Gen", "Kd (apparent)": "1.7 nM", "replicates with signal": "6 of 6", "empty controls": "0 of 18"}
{"CDR-H1": "GFEIEEYGIS", "CDR-H2": "VIYADGQRSSYADNVK", "CDR-H3": "GKVDTVVMY", "group": "En_Gibbs", "Kd (apparent)": "no signal", "replicates with signal": "0 of 6", "empty controls": "0 of 18"}
{"CDR-H1": "GFDLNSYGIS", "CDR-H2": "VIYSDGRRTFYIDSVK", "CDR-H3": "GHAAGTFDW", "group": "GP_Gibbs", "Kd (apparent)": "5.3 nM", "replicates with signal": "6 of 6", "empty controls": "0 of 18"}
{"CDR-H1": "GFDLDEYGIS", "CDR-H2": "VIYADGQRTAYSDSVK", "CDR-H3": "GNTAGTFDV", "group": "En_Gen", "Kd (apparent)": "60 pM", "replicates with signal": "4 of 6", "empty controls": "0 of 18"}
{"CDR-H1": "GFDLNSYGIS", "CDR-H2": "VISSDGRRTLYGDGVK", "CDR-H3": "GRAAGWFNS", "group": "Rand", "Kd (apparent)": "no signal", "replicates with signal": "0 of 6", "empty controls": "1 of 18"}
{"CDR-H1": "GFTLNSYGIS", "CDR-H2": "VIYSDGRRLAYGDSVK", "CDR-H3": "GRAAGTFDS", "group": "Ctrl", "Kd (apparent)": "730 nM", "replicates with signal": "1 of 6", "empty controls": "0 of 18"}
{"CDR-H1": "GFTLNDYGIS", "CDR-H2": "VIYSDGRRTFYGDSVK", "CDR-H3": "GRVAGTFDY", "group": "Ctrl", "Kd (apparent)": "1.6 nM", "replicates with signal": "5 of 6", "empty controls": "1 of 18"}
{"CDR-H1": "GFTLNDYGIS", "CDR-H2": "VIGSDGRSTQIIDSVK", "CDR-H3": "GRAAGTFDS", "group": "Rand", "Kd (apparent)": "no signal", "replicates with signal": "0 of 6", "empty controls": "0 of 18"}
{"CDR-H1": "GFSLNEYGIS", "CDR-H2": "VIYSDGRRTFYIDSVK", "CDR-H3": "GRNAGTFDS", "group": "GPLM_Gibbs", "Kd (apparent)": "1.8 nM", "replicates with signal": "6 of 6", "empty controls": "1 of 18"}
{"CDR-H1": "GFNLNEYGIS", "CDR-H2": "VIYADGVRTFYADSVK", "CDR-H3": "GEIAGTFDF", "group": "En_HC", "Kd (apparent)": "200 pM", "replicates with signal": "6 of 6", "empty controls": "0 of 18"}
{"CDR-H1": "GFQLDEVGIS", "CDR-H2": "VIYADGIRRAYKSKVK", "CDR-H3": "GGNGGSFDL", "group": "En_Gibbs", "Kd (apparent)": "96 nM", "replicates with signal": "5 of 6", "empty controls": "0 of 18"}
{"CDR-H1": "GFTLNSYGIS", "CDR-H2": "VIYSDGRRTFYGDSVK", "CDR-H3": "GGAAGTFDT", "group": "Ctrl", "Kd (apparent)": "11 nM", "replicates with signal": "6 of 6", "empty controls": "0 of 18"}
{"CDR-H1": "GFDLNEYGIS", "CDR-H2": "VIYADGRRTFYSDNVK", "CDR-H3": "GQNAGTFDV", "group": "En_HC", "Kd (apparent)": "370 pM", "replicates with signal": "6 of 6", "empty controls": "0 of 18"}
{"CDR-H1": "GFTLNSYGIS", "CDR-H2": "VIYSDGRRTFYADSVK", "CDR-H3": "GAAAGTFDS", "group": "GPLM_Gen", "Kd (apparent)": "3.9 nM", "replicates with signal": "6 of 6", "empty controls": "0 of 18"}
{"CDR-H1": "GFTLNEYGIS", "CDR-H2": "VIYSDGRRTFYSDSVK", "CDR-H3": "GRAAGTFDS", "group": "Ctrl+GPLM_Gen", "Kd (apparent)": "1.1 nM", "replicates with signal": "12 of 12", "empty controls": "1 of 36"}
{"CDR-H1": "GMDLNEYGIS", "CDR-H2": "VIYADGSRTSYQEKVK", "CDR-H3": "GLVGGMLAV", "group": "En_Gibbs", "Kd (apparent)": "38 nM", "replicates with signal": "4 of 6", "empty controls": "0 of 18"}

The last 2 entries again:

{"CDR-H1": "GFTLNEYGIS", "CDR-H2": "VIYSDGRRTFYSDSVK", "CDR-H3": "GRAAGTFDS", "group": "Ctrl+GPLM_Gen", "Kd (apparent)": "1.1 nM", "replicates with signal": "12 of 12", "empty controls": "1 of 36"}
{"CDR-H1": "GMDLNEYGIS", "CDR-H2": "VIYADGSRTSYQEKVK", "CDR-H3": "GLVGGMLAV", "group": "En_Gibbs", "Kd (apparent)": "38 nM", "replicates with signal": "4 of 6", "empty controls": "0 of 18"}

The parent sequence was in this pool as ten entries: three were never detected, three once, and four in most replicates, with averages from 2.2 nM to 240 nM. Values of this round are not directly comparable with the first-round values of the same sequences. Where one sequence has several entries in the source, the replicates are pooled. As a blank, each scFv also met three strains without target: over all heavy chain designs, 1% of these pairings were detected, typically at 120 nM and seldom below 7.0 nM. For each scFv, signals with the empty controls are counted beside the result.